Data reported in ChEMBL document CHEMBL4033696, “Repurposing of Proton Pump Inhibitors as first identified small molecule inhibitors of endo-β-N-acetylglucosaminidase (ENGase) for the treatment of NGLY1 deficiency, a rare genetic disease” (Bioorg Med Chem Lett, 2017).

Biological target: T1, Cytosolic endo-beta-N-acetylglucosaminidase (Homo sapiens) (UniProt Q8NFI3)
T1 sequence (whole entry): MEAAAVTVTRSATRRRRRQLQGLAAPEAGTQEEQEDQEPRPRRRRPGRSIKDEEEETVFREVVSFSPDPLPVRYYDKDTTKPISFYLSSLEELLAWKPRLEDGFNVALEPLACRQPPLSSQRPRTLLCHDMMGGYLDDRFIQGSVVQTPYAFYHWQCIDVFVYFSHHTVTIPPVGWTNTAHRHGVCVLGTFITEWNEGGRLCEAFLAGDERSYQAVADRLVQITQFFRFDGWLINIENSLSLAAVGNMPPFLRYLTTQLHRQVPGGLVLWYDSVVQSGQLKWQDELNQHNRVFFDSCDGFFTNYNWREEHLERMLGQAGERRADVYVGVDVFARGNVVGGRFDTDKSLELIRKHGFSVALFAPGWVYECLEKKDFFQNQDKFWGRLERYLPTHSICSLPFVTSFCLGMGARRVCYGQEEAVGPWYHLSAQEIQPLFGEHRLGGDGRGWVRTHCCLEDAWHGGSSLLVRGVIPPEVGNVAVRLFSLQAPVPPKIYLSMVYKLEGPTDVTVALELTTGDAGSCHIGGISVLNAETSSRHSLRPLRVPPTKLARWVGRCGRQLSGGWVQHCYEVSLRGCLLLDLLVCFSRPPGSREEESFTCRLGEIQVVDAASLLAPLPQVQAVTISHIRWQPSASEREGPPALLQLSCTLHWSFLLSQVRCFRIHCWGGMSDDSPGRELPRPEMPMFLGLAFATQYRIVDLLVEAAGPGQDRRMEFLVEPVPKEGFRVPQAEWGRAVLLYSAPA
Assay: Inhibition of recombinant human C-MYC/DDK-tagged ENGase expressed in HEK293T cells at 100 uM using heat inactivated bovine ribonuclease B as substrate pretreated for 15 mins followed by substrate addition after 90 mins by SDS-PAGE analysis
Conditions: HEK-293T
Summary of the method: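 Recombinant human ENGase incubated with ribonuclease B substrate and test compound at 100 μM as a single-concentration screen. Reactions were then heat-inactivated and resolved on 12% SDS-PAGE as an electrophoretic mobility shift assay. Bands were stained with Coomassie blue R-250 and quantified by densitometry.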

Compound	inhibition
CC(C)C[C@H](NC(=O)[C@H](Cc1ccccc1)NC(=O)c1cnccn1)B(O)O	inactive
O=C1CC2(CCCC2)CC(=O)N1CCCCN1CCN(c2ncccn2)CC1	inactive
C[C@@H](CN1CC(=O)NC(=O)C1)N1CC(=O)NC(=O)C1	inactive

Calls of active or inactive are those of the source. The rule behind the calls is not given here.
